Measurements from paper PMC11472320, “Computationally Driven Discovery of a BCR-ABL1 Kinase Inhibitor with Activity in Multidrug-Resistant Chronic Myeloid Leukemia” (Journal of Medicinal Chemistry, 2024).

Amino acid sequences for entries named in this document (tags omitted). A change or cut given only in a name is not applied to a line headed by its entry.
UniProt Q12851: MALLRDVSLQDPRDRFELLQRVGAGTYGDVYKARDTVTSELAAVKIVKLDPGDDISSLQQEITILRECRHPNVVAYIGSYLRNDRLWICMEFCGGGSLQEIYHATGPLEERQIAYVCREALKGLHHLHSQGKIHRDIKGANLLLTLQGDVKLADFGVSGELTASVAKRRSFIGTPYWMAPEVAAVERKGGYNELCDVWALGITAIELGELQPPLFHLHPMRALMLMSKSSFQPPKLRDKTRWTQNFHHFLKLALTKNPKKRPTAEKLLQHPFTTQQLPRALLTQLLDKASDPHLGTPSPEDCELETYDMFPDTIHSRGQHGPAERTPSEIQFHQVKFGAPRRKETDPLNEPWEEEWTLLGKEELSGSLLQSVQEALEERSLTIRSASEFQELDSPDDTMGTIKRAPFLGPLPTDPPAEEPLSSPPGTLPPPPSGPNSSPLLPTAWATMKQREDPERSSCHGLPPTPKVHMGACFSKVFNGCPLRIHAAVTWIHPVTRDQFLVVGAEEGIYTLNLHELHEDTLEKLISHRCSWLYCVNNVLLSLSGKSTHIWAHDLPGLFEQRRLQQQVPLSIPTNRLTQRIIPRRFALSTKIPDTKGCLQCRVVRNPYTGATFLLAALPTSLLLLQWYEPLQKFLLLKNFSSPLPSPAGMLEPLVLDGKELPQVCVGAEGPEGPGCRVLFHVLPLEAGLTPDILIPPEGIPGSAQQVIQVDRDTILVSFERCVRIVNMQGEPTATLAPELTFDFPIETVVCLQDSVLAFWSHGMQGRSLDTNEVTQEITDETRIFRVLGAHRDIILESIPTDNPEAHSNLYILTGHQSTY
UniProt Q9Y616: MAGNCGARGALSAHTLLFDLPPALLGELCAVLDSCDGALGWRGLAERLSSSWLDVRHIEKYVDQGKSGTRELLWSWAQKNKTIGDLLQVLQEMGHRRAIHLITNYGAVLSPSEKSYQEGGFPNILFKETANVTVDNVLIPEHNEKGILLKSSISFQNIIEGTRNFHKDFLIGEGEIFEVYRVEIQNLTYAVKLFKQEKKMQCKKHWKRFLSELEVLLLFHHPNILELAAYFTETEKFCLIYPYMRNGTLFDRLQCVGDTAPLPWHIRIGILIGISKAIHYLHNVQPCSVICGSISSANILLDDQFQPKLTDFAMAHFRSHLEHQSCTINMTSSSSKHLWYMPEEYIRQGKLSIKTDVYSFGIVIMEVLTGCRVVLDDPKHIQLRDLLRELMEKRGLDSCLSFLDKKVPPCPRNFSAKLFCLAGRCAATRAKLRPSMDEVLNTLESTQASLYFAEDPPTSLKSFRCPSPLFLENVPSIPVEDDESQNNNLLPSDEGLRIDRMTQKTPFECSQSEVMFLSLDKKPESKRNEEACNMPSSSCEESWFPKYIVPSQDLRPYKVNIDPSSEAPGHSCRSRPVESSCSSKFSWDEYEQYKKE
UniProt Q9Y2H9: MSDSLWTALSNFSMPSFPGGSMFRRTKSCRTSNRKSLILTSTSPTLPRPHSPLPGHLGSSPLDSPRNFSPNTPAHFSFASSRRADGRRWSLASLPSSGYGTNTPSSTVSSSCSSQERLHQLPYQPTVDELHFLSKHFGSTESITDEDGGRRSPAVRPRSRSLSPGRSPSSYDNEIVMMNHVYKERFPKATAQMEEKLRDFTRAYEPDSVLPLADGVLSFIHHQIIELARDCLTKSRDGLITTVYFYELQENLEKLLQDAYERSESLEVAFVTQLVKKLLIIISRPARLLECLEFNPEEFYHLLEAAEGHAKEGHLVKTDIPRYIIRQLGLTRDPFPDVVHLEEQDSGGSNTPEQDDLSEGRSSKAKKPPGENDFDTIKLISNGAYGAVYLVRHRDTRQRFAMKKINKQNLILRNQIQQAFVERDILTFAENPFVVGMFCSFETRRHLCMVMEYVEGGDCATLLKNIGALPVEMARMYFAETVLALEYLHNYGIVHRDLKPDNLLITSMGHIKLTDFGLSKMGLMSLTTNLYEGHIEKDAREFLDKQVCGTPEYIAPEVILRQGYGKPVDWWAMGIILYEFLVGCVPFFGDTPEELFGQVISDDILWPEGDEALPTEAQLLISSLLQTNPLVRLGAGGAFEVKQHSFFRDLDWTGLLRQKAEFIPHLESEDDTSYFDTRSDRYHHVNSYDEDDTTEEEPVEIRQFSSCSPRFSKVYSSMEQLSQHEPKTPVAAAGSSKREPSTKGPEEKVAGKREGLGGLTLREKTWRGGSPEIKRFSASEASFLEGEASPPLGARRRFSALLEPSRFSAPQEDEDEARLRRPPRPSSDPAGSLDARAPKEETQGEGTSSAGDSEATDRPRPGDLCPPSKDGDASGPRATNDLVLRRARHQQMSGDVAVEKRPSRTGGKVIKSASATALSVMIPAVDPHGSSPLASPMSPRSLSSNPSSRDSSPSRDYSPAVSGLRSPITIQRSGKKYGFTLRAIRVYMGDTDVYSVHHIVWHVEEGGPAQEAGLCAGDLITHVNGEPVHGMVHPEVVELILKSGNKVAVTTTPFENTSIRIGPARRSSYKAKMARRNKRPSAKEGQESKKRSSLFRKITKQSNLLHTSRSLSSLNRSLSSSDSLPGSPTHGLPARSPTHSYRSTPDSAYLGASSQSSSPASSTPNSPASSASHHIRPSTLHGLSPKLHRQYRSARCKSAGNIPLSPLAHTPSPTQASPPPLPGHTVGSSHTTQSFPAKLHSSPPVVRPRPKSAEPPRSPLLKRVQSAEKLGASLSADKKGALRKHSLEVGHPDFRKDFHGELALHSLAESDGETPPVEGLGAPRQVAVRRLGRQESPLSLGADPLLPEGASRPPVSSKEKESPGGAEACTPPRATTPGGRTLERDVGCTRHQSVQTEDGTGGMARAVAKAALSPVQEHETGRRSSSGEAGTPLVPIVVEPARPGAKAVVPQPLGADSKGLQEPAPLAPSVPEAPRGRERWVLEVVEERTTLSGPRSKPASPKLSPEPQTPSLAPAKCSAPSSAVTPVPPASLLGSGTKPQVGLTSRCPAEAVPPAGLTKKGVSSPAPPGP
UniProt Q9Y243: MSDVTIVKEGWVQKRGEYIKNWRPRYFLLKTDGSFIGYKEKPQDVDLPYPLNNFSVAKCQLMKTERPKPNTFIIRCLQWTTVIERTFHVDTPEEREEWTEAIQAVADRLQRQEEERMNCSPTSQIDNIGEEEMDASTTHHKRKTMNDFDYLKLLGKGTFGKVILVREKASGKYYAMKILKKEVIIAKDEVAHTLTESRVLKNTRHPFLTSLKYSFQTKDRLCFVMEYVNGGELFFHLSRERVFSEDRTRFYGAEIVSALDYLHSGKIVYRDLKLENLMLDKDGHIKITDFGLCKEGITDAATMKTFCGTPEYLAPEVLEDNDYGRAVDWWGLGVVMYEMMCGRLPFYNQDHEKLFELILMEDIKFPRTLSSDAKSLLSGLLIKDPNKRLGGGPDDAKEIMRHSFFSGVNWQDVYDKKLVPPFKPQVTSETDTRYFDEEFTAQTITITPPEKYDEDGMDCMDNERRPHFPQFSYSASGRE
UniProt P48730: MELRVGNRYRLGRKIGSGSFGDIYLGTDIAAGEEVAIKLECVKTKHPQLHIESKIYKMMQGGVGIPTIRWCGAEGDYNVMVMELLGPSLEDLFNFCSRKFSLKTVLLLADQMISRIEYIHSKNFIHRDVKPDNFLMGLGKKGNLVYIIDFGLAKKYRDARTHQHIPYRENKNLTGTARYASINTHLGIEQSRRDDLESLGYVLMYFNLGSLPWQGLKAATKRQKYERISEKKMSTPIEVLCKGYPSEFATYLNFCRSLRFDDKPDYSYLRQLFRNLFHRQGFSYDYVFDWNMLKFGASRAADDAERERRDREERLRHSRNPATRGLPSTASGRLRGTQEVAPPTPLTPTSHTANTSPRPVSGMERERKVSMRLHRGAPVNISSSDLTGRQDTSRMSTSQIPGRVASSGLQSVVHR
UniProt O94804: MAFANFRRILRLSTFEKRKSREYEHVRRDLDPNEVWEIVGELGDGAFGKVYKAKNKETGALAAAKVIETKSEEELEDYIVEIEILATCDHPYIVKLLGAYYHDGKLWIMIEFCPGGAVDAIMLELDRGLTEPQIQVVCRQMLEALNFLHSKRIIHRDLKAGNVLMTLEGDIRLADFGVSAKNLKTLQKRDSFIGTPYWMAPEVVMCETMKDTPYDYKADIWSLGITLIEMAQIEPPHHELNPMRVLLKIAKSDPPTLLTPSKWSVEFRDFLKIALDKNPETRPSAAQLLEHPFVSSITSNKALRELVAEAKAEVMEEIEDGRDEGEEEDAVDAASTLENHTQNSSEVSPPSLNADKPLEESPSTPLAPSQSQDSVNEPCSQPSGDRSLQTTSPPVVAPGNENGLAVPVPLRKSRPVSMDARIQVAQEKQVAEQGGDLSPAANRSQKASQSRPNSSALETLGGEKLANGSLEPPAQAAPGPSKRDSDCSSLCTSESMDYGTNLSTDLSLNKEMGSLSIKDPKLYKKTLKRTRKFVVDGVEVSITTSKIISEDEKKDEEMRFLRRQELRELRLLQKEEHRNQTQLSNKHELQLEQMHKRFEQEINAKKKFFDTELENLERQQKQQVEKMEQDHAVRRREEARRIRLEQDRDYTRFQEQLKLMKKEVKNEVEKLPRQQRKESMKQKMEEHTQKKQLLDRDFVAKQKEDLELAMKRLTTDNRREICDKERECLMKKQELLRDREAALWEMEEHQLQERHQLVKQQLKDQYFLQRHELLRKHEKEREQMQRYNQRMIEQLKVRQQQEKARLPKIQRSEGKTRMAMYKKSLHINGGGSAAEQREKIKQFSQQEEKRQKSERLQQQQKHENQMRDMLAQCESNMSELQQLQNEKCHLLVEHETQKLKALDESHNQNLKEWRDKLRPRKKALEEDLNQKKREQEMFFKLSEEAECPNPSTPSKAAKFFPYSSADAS
UniProt P42336, whole entry H1047Y: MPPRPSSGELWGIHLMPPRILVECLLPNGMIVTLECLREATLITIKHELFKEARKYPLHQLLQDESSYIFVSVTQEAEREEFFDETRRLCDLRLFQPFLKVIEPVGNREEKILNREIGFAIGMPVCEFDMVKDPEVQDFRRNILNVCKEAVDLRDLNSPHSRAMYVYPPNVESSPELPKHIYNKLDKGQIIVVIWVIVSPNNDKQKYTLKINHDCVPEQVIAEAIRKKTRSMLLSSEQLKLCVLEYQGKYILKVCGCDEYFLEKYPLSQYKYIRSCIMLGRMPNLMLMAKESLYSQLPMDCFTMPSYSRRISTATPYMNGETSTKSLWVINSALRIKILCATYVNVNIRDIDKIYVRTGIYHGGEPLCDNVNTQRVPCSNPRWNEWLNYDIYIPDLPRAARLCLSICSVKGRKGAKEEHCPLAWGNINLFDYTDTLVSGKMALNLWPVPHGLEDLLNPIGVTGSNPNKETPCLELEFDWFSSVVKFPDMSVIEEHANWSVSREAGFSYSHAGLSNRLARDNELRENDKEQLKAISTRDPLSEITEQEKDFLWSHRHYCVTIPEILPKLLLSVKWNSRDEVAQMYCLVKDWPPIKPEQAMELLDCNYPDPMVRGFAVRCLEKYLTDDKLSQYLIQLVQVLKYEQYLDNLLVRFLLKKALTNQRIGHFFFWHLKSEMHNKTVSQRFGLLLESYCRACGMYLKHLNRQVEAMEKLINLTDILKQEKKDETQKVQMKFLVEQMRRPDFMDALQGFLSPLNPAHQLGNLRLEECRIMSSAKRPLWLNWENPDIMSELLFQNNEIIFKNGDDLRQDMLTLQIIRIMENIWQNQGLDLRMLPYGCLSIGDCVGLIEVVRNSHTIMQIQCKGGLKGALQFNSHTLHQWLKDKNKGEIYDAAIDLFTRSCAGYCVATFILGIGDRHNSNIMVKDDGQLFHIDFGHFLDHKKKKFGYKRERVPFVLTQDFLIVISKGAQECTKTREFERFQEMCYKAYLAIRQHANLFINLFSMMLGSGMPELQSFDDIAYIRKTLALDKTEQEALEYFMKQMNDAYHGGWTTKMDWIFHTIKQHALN
UniProt O43318: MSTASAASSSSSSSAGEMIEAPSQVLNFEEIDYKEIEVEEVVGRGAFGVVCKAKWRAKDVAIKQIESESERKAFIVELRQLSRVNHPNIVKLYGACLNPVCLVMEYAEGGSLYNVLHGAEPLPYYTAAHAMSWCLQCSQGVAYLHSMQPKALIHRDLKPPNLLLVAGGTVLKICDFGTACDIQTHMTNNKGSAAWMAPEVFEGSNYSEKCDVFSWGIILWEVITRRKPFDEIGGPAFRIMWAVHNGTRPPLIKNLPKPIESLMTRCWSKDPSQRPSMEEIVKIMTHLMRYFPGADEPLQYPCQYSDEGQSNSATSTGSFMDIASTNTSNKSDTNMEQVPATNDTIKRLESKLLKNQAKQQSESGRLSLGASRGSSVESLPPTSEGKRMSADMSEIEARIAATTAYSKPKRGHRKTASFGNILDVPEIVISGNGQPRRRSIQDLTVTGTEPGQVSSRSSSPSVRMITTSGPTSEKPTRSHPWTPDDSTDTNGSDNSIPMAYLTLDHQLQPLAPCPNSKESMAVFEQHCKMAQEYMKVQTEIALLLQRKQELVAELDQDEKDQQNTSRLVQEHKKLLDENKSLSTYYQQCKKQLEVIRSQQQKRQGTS

Legend:
AKT2 = AKT2 (Homo sapiens, UniProt P31751); test: biochemical; conditions: read-out: Percent Control
TBK1 = TBK1 (Homo sapiens, UniProt Q9UHD2); test: biochemical; conditions: read-out: Percent Control
[1] = target: RSK1(Kin.Dom.1-N-terminal) (Homo sapiens, UniProt Q15418); test: biochemical; conditions: read-out: Percent Control
[2] = target: RPS6KA4(Kin.Dom.2-C-terminal) (Homo sapiens, UniProt O75676); test: biochemical; conditions: read-out: Percent Control
[3] = target: RPS6KA5(Kin.Dom.1-N-terminal) (Homo sapiens, UniProt O75582); test: biochemical; conditions: read-out: Percent Control
MLK1 = MLK1 (Homo sapiens, UniProt P80192); test: biochemical; conditions: read-out: Percent Control
BIKE = BIKE (Homo sapiens, UniProt Q9NSY1); test: biochemical; conditions: read-out: Percent Control
MAP4K2 = MAP4K2 (Homo sapiens, UniProt Q12851); test: biochemical; conditions: read-out: Percent Control
PLK2 = PLK2 (Homo sapiens, UniProt Q9NYY3); test: biochemical; conditions: read-out: Percent Control
CDK11 = CDK11 (Homo sapiens, UniProt Q9BWU1); test: biochemical; conditions: read-out: Percent Control
MET = MET (Homo sapiens, UniProt P08581); test: biochemical; conditions: read-out: Percent Control
IRAK3 = IRAK3 (Homo sapiens, UniProt Q9Y616); test: biochemical; conditions: read-out: Percent Control
MAST1 = MAST1 (Homo sapiens, UniProt Q9Y2H9); test: biochemical; conditions: read-out: Percent Control
ACVR1 = ACVR1 (Homo sapiens, UniProt Q04771); test: biochemical; conditions: read-out: Percent Control
TRKA = TRKA (Homo sapiens, UniProt P04629); test: biochemical; conditions: read-out: Percent Control
PIKFYVE = PIKFYVE (Homo sapiens, UniProt Q9Y2I7); test: biochemical; conditions: read-out: Percent Control
NLK = NLK (Homo sapiens, UniProt Q9UBE8); test: biochemical; conditions: read-out: Percent Control
SRPK3 = SRPK3 (Homo sapiens, UniProt Q9UPE1); test: biochemical; conditions: read-out: Percent Control
WEE2 = WEE2 (Homo sapiens, UniProt P0C1S8); test: biochemical; conditions: read-out: Percent Control
SRPK1 = SRPK1 (Homo sapiens, UniProt Q96SB4); test: biochemical; conditions: read-out: Percent Control
AKT3 = AKT3 (Homo sapiens, UniProt Q9Y243); test: biochemical; conditions: read-out: Percent Control
CSNK1D = CSNK1D (Homo sapiens, UniProt P48730); test: biochemical; conditions: read-out: Percent Control
ROS1 = ROS1 (Homo sapiens, UniProt P08922); test: biochemical; conditions: read-out: Percent Control
ERBB4 = ERBB4 (Homo sapiens, UniProt Q15303); test: biochemical; conditions: read-out: Percent Control
LOK = LOK (Homo sapiens, UniProt O94804); test: biochemical; conditions: read-out: Percent Control
PRKR = PRKR (Homo sapiens, UniProt P19525); test: biochemical; conditions: read-out: Percent Control
PCTK1 = PCTK1 (Homo sapiens, UniProt Q00536); test: biochemical; conditions: read-out: Percent Control
MYO3B = MYO3B (Homo sapiens, UniProt Q8WXR4); test: biochemical; conditions: read-out: Percent Control
SBK1 = SBK1 (Homo sapiens, UniProt Q52WX2); test: biochemical; conditions: read-out: Percent Control
TIE1 = TIE1 (Homo sapiens, UniProt P35590); test: biochemical; conditions: read-out: Percent Control
PIK3CA(H1047Y) = PIK3CA(H1047Y) (Homo sapiens, UniProt P42336, H1047Y); test: biochemical; conditions: read-out: Percent Control
MLK2 = MLK2 (Homo sapiens, UniProt Q02779); test: biochemical; conditions: read-out: Percent Control
STK36 = STK36 (Homo sapiens, UniProt Q9NRP7); test: biochemical; conditions: read-out: Percent Control
TAK1 = TAK1 (Homo sapiens, UniProt O43318); test: biochemical; conditions: read-out: Percent Control
MST2 = MST2 (Homo sapiens, UniProt Q13188); test: biochemical; conditions: read-out: Percent Control
PAK2 = PAK2 (Homo sapiens, UniProt Q13177); test: biochemical; conditions: read-out: Percent Control
SYK = SYK (Homo sapiens, UniProt P43405); test: biochemical; conditions: read-out: Percent Control
SGK3 = SGK3 (Homo sapiens, UniProt Q96BR1); test: biochemical; conditions: read-out: Percent Control
DRAK2 = DRAK2 (Homo sapiens, UniProt O94768); test: biochemical; conditions: read-out: Percent Control
CIT = CIT (Homo sapiens, UniProt O14578); test: biochemical; conditions: read-out: Percent Control
MERTK = MERTK (Homo sapiens, UniProt Q12866); test: biochemical; conditions: read-out: Percent Control
YSK4 = YSK4 (Homo sapiens, UniProt Q56UN5); test: biochemical; conditions: read-out: Percent Control
NDR1 = NDR1 (Homo sapiens, UniProt Q15208); test: biochemical; conditions: read-out: Percent Control

## COc1cc2c(Nc3ccc(Cl)c(OC)n3)c(C#N)cnc2cc1OCCON1CCN(C)CC1 [16a, 4-((5-Chloro-6-methoxypyridin-2-yl)amino)-6-methoxy-7-(2-((4-methylpiperazin-1-yl)oxy)ethoxy)quinoline-3-carbonitrile]
AKT2
  remaining activity at 1 µM: 97%
TBK1
  remaining activity at 1 µM: 30%
[1]
  remaining activity at 1 µM: 37%
[2]
  remaining activity at 1 µM: 91%
[3]
  remaining activity at 1 µM: 100%
MLK1
  remaining activity at 1 µM: 11%
BIKE
  remaining activity at 1 µM: 1.2%
MAP4K2
  remaining activity at 1 µM: 0%
PLK2
  remaining activity at 1 µM: 42%
CDK11
  remaining activity at 1 µM: 99%
MET
  remaining activity at 1 µM: 41%
IRAK3
  remaining activity at 1 µM: 72%
MAST1
  remaining activity at 1 µM: 96%
ACVR1
  remaining activity at 1 µM: 100%
TRKA
  remaining activity at 1 µM: 62%
PIKFYVE
  remaining activity at 1 µM: 79%
NLK
  remaining activity at 1 µM: 97%
SRPK3
  remaining activity at 1 µM: 95%
WEE2
  remaining activity at 1 µM: 1.1%
SRPK1
  remaining activity at 1 µM: 96%
AKT3
  remaining activity at 1 µM: 100%
CSNK1D
  remaining activity at 1 µM: 3.4%
ROS1
  remaining activity at 1 µM: 100%
ERBB4
  remaining activity at 1 µM: 0.65%
LOK
  remaining activity at 1 µM: 0.1%
PRKR
  remaining activity at 1 µM: 64%
PCTK1
  remaining activity at 1 µM: 100%
MYO3B
  remaining activity at 1 µM: 32%
SBK1
  remaining activity at 1 µM: 86%
TIE1
  remaining activity at 1 µM: 81%
PIK3CA(H1047Y)
  remaining activity at 1 µM: 73%
MLK2
  remaining activity at 1 µM: 42%
FLT3(ITD)
  Percent Control: 32
STK36
  remaining activity at 1 µM: 5.5%
TAK1
  remaining activity at 1 µM: 0.1%
MST2
  remaining activity at 1 µM: 29%
PAK2
  remaining activity at 1 µM: 27%
SYK
  remaining activity at 1 µM: 3.6%
SGK3
  remaining activity at 1 µM: 100%
DRAK2
  remaining activity at 1 µM: 100%
CIT
  remaining activity at 1 µM: 1.2%
MERTK
  remaining activity at 1 µM: 27%
YSK4
  remaining activity at 1 µM: 0.35%
NDR1
  remaining activity at 1 µM: 80%
